ChEMBL document CHEMBL1157649, “Cytotoxic 2-benzylidene-6-(nitrobenzylidene)cyclohexanones which display substantially greater toxicity for neoplasms than non-malignant cells” (Bioorg Med Chem, 2010)

Key:
Assay type in all cases: functional
HL-60 = experiment: Selectivity index, ratio of CC50 for human normal cells to CC50 for human HL60 cells
Summary of the method: (§1)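 The index is the average CC50 toward the three normal cell types (HGF, HPC, HPLF) divided by the CC50 toward the indicated malignant line.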

HSC-2 = experiment: Selectivity index, ratio of CC50 for human normal cells to CC50 for human HSC2 cells; summary of the method: as §1
HSC-4 = experiment: Selectivity index, ratio of CC50 for human normal cells to CC50 for human HSC4 cells; summary of the method: as §1

In the case of `O=C1/C(=C/c2ccc(F)cc2)CCC/C1=C\c1ccccc1[N+](=O)[O-]`, the “Selectivity Index” value (HL-60) is reported as 18, the “Selectivity Index” value (HSC-2) is reported as 20 and the “Selectivity Index” value (HSC-4) is reported as 24.
